Assay results from article PMC6816013 (Journal of Medicinal Chemistry, 2019).
Structures can show the parent of a compound that is named as a salt.

Protein sequences, listed by entry. Tags and fused reporters are not part of them. Lines headed by an entry give the natural chain unless they say otherwise; changes in a name come on top. Residues count along the entry.
UniProt P02768, 25-609: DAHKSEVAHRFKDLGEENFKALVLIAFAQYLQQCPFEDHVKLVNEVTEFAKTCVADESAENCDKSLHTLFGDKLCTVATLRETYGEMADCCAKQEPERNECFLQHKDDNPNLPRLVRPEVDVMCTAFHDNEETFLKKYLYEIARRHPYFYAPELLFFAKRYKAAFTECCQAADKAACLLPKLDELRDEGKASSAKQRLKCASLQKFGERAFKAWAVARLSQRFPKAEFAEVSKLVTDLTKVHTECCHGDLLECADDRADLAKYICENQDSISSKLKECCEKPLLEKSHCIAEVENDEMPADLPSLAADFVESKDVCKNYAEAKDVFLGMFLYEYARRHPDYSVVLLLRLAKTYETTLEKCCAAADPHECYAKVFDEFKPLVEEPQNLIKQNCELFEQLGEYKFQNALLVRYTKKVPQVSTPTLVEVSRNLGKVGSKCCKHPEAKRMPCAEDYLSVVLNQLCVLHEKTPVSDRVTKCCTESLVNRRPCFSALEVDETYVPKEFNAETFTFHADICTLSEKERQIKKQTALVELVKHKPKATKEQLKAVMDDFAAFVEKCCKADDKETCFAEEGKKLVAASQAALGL
UniProt Q12809: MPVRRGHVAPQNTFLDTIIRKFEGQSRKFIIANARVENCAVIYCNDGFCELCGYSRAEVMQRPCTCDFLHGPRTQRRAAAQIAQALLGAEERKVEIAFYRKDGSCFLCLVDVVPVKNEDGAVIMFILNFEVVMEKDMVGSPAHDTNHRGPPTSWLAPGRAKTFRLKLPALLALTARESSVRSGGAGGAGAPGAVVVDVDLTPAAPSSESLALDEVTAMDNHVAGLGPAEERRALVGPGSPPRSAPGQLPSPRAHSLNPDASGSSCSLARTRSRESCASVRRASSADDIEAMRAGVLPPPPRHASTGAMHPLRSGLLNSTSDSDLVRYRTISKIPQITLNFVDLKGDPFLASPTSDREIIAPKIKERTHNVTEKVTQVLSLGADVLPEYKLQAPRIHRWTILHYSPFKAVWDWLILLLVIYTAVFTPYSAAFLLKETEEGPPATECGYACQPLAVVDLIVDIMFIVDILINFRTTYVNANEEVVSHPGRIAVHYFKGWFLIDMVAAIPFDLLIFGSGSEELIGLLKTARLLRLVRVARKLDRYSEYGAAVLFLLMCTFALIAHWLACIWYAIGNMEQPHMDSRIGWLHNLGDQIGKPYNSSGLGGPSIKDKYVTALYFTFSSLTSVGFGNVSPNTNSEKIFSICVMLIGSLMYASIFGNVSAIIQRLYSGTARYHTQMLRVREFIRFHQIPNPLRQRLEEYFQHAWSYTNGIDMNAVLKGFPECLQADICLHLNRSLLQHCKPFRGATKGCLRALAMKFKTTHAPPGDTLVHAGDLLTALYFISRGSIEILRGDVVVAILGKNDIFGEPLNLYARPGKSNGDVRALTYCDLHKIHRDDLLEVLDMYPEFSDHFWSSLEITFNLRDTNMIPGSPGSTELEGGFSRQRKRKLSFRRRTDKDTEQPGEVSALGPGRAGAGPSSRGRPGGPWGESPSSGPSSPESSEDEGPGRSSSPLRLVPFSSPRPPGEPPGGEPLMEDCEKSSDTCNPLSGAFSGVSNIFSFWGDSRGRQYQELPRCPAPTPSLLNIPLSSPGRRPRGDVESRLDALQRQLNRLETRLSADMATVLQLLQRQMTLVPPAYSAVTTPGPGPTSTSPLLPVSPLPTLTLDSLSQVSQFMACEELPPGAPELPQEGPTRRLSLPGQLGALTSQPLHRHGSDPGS

tested on: not listed separately; test: Cell cytotoxicity assay; format: cell-based; details: compared to 31

In the case of `Cc1cc(Nc2nccc(-c3sc(C4CCNCC4)nc3C3CC3)n2)ccn1` [Compound 59, 4-(4-Cyclopropyl-2-(piperidin-4-yl)thiazol-5-yl)-N-(2-methylpyridin-4-yl)pyrimidin-2-amine Dihydrochloride], the “fold attenuation of cytotoxicity” value is reported as 2.5 fold.

target: HSA (Homo sapiens, UniProt P02768); test: HSA binding (plasma protein binding); details: not given

With `c1cc(Nc2nccc(-c3sc(C4CCNCC4)nc3C3CC3)n2)ncn1` [Compound 58, 4-(4-Cyclopropyl-2-(piperidin-4-yl)thiazol-5-yl)-N-(pyrimidin-4-yl)pyrimidin-2-amine Hydrochloride] the HSA binding was 93%.

same assay, conditions: HSA

Compared with `Fc1ccc(-c2nc(N3CCOCC3)sc2-c2ccnc(Nc3ccc(N4CCNCC4)cc3)n2)cc1` [Compound 9, 4-[4-(4-Fluorophenyl)-2-(morpholin-4-yl)-1,3-thiazol-5-yl]-N-[4-(piperazin-1-yl)phenyl]pyrimidin-2-amine Trifluoroacetate], `Fc1ccc(-c2nc(N3CCCC3)sc2-c2ccnc(Nc3ccc(N4CCNCC4)cc3)n2)cc1` [Compound 10, 4-[4-(4-Fluorophenyl)-2-(pyrrolidin-1-yl)-1,3-thiazol-5-yl]-N-[4-(piperazin-1-yl)phenyl]pyrimidin-2-amine Trifluoroacetate] is higher in HSA binding: 97% for the first, 98% for the second.

`CN1CCN(c2ccc(Nc3nccc(-c4sc(N)nc4-c4ccc(F)cc4)n3)cc2)CC1` [Compound 11, 4-[2-Amino-4-(4-fluorophenyl)-1,3-thiazol-5-yl]-N-[4-(4-methylpiperazin-1-yl)phenyl]pyrimidin-2-amine Trifluoroacetate] and `CN1CCC(C(=O)Nc2nc(-c3ccc(F)cc3)c(-c3ccnc(Nc4ccc(N5CCNCC5)cc4)n3)s2)CC1` [Compound 16, N-[4-(4-Fluorophenyl)-5-{2-[4-(piperazin-1-yl)anilino]pyrimidin-4-yl}-1,3-thiazol-2-yl]-1-methylpiperidine-4-carboxamide Trifluoroacetate] are the same in HSA binding: 97% for the first, 97% for the second.

Going from `O=C(Nc1nc(-c2ccc(F)cc2)c(-c2ccnc(Nc3ccc(N4CCNCC4)cc3)n2)s1)C1CC1` [Compound 15, N-[4-(4-Fluorophenyl)-5-{2-[4-(piperazin-1-yl)anilino]pyrimidin-4-yl}-1,3-thiazol-2-yl]cyclopropanecarboxamide Trifluoroacetate] to `O=S(=O)(Nc1nc(-c2ccc(F)cc2)c(-c2ccnc(Nc3ccc(N4CCNCC4)cc3)n2)s1)C1CCNCC1` [Compound 18, N-[4-(4-Fluorophenyl)-5-{2-[4-(piperazin-1-yl)anilino]pyrimidin-4-yl}-1,3-thiazol-2-yl]piperidine-4-sulfonamide Trifluoroacetate], the HSA binding rises from 92% to 96%.

Going from `CCCS(=O)(=O)Nc1nc(-c2ccc(F)cc2)c(-c2ccnc(Nc3ccc(N4CCNCC4)cc3)n2)s1` [Compound 17, N-[4-(4-Fluorophenyl)-5-{2-[4-(piperazin-1-yl)anilino]pyrimidin-4-yl}-1,3-thiazol-2-yl]propane-1-sulfonamide Trifluoroacetate] to `Oc1cc(Nc2nccc(-c3sc(C4CCNCC4)nc3-c3ccc(F)cc3)n2)ccn1` [Compound 33, 4-({4-[4-(4-Fluorophenyl)-2-(piperidin-4-yl)-1,3-thiazol-5-yl]pyrimidin-2-yl}amino)pyridin-2-ol Trifluoroacetate], the HSA binding falls from 98% to 90%.

Going from `CCOc1nccc(Nc2nccc(-c3sc(C4CCNCC4)nc3-c3ccc(F)cc3)n2)n1` [Compound 30, N-(2-Ethoxypyrimidin-4-yl)-4-[4-(4-fluorophenyl)-2-(piperidin-4-yl)-1,3-thiazol-5-yl]pyrimidin-2-amine Trifluoroacetate] to `COc1cc(Nc2nccc(-c3sc(C4CCNCC4)nc3-c3ccc(F)cc3)n2)cc(C)n1` [Compound 34, 4-[4-(4-Fluorophenyl)-2-(piperidin-4-yl)-1,3-thiazol-5-yl]-N-(2-methoxy-6-methylpyridin-4-yl)pyrimidin-2-amine Trifluoroacetate], the HSA binding rises from 94% to 95%.

`Cc1cc(Nc2nccc(-c3sc(C4CCNCC4)nc3C3CC3)n2)ccn1` [Compound 59, 4-(4-Cyclopropyl-2-(piperidin-4-yl)thiazol-5-yl)-N-(2-methylpyridin-4-yl)pyrimidin-2-amine Dihydrochloride] gave an HSA binding of 97%.

target: hERG (Homo sapiens, UniProt Q12809); test: not given; details: not given

In the case of `Cc1cc(Nc2nccc(-c3sc(C4CCNCC4)nc3C3CC3)n2)ccn1` [Compound 59, 4-(4-Cyclopropyl-2-(piperidin-4-yl)thiazol-5-yl)-N-(2-methylpyridin-4-yl)pyrimidin-2-amine Dihydrochloride], the “fold attenuation of hERG inhibitory activity” value is reported as 5 fold.
